Tested on: Gentiobiose
Assay: purified protein, by the assay type
Conditions: other: PAHBAH assay, 100 mM HEPES pH 6.5, 37 °C

| Substance | Km [µM] | kcat [s⁻¹] | kcat/Km [M⁻¹ s⁻¹] |
| --- | --- | --- | --- |
| BpGH3-X62MLG (Blautia producta ATCC 27340 = DSM 2950) | 240 ± 30 | 14 ± 0.2 | 58000 |
| BpGH3-AR8MLG (Blautia producta ATCC 27340 = DSM 2950) | 240 ± 40 | 14 ± 0.2 | 58000 |

Source: article PMC10318527, “Utilization of dietary mixed-linkage β-glucans by the Firmicute Blautia producta” (The Journal of Biological Chemistry, 2023)
